This is a selection; strong and weak results do not stand in their true shares. Inconclusive results are not listed. Activity calls are given as the source filed them. Calls come from the whole dose curve.
Potency is the fitted concentration of half-maximal effect.

Sequences of proteins named here, by UniProt entry; tags and fusion partners are left off.
UniProt P28223, whole entry, looked up: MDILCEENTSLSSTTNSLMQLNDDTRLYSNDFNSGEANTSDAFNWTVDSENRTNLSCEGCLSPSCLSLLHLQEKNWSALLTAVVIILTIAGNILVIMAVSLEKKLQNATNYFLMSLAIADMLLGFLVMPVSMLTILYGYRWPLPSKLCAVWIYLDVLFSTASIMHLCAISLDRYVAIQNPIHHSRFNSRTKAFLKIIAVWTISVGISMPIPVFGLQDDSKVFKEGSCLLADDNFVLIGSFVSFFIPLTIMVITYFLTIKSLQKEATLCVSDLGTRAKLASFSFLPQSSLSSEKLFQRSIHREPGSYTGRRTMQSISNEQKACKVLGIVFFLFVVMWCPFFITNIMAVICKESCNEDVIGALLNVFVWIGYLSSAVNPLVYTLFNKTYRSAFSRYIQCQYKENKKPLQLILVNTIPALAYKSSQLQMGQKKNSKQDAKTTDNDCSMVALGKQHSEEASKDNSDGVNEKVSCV

The assay has as its target 5-hydroxytryptamine receptor 2A (Homo sapiens) (UniProt P28223). In words: 5-hydroxytryptamine receptor 2A (HTR2A) small molecule agonists, cell-based qHTS assay (AID 1963587). Note: nearly all actives have a fitted effect of over 30% in size. As to conditions: HTR2A-CHO cells, calcium flux fluorescence, agonist mode; series mostly up to 35.6 µM. From the text:
National Center for Advancing Translational Sciences [NCATS]
Division of Preclinical Innovation [DPI]
U.S. Environmental Protection Agency [EPA]
National Institutes of Environmental Health Sciences [NIEHS]
National Toxicology Program [NTP]
U.S. Food and Drug Administration [FDA]
The HTR2A receptor is a subtype of the 5-HT2 receptor that belongs to the serotonin receptor family and is a G protein-coupled receptor (GPCR). The HTR2A-CHO cell line stably expressing human 5-hydroxytryptamine receptor 2A (HTR2A) can be used for screening agonists of interactions between 5-HT2 and its ligands. The HTR2A-CHO calcium flux assay is a homogeneous fluorescence-based assay for detecting the intracellular calcium level using FDSS kinetic plate reader system.
HTR2A-CHO cells were dispensed at 2000 cells/3uL/well in 1536-well black-clear bottom plates using a Multidrop Dispenser. After the assay plates were incubated at a 37 C/5% CO2 incubator for 18 h, 3 uL of Dye Loading Buffer was transferred to the assay plate by a Flying Reagent Dispenser. The assay plates were incubated at 37 C for 1h. For agonist mode, 23 nL of compounds dissolved in DMSO, positive controls or DMSO only was transferred to the assay plate by a pin tool. The fluorescence intensity in the plates was measured using FDSS 7000EX kinetic plate reader for 2 min at 1 sec intervals.
Background: Quantitative high-throughput screening tests each substance at several concentrations.
Take `COc1ccc(OC)c(CC(C)N)c1` (stereo not drawn): the Potency was active: 0.0662 µM.
As to `O=C1NCN(c2ccccc2)C12CCN(CCCOc1ccc(F)cc1)CC2`, the Potency was active: 8.49 µM.
As to `CC(Cc1ccc(O)cc1)NCC(O)c1cc(O)cc(O)c1` (stereo not drawn), the Potency entry is “inactive”.

These data come from PubChem BioAssay (Tox21).
